Assay results as given in patent US20130037744A1, “CARBOXYL-FUNCTIONALIZED SILICON-CONTAINING PRECURSOR COMPOUND OF VARIOUS ORGANIC CARBOXYLIC ACIDS” (EVONIK DEGUSSA GmbH, priority 2010, published 2013).

Assay: Solubility investigation in solvent (vinyltrimethoxysilane)
Type: physicochemical
Text: Solubility Investigation in Solvent: Solubility Investigation in Solvent: Solubility Investigation in Different Solvents Solubility Investigation in the Solvent Solubility Investigation in Solvent Solubility Investigation in Solvent Solubility Investigation in Solvent Solubility Investigation in Solvent Solubility Investigation in Solvent

Solubility in vinyltrimethoxysilane (VTMO) [%] | Substance
>50 | Vinylcarboxysilane from Lauric, Myristic, and Caprylic Acid [Example 1.1]
<1.0 | Vinylcarboxysilane from Myristic, Palmitic and Stearic Acid [Example 1.2]
